The values below come from patent US8436019B2, “Sulfonyl-piperidin-4-yl methylamine amide analogs as GlyT1 inhibitors, methods for making same, and use of same in treating psychiatric disorders” (Vanderbilt University, priority 2009, dated 2013).

This test has as its target T1, GlyT1 (Homo sapiens, UniProt P48067).
T1 construct: Human placental choriocarcinoma cells endogenously expressing GlyT1; endogenous in cells; host or cells: JAR cells (human placental choriocarcinoma)
T1 sequence (P48067 1-706): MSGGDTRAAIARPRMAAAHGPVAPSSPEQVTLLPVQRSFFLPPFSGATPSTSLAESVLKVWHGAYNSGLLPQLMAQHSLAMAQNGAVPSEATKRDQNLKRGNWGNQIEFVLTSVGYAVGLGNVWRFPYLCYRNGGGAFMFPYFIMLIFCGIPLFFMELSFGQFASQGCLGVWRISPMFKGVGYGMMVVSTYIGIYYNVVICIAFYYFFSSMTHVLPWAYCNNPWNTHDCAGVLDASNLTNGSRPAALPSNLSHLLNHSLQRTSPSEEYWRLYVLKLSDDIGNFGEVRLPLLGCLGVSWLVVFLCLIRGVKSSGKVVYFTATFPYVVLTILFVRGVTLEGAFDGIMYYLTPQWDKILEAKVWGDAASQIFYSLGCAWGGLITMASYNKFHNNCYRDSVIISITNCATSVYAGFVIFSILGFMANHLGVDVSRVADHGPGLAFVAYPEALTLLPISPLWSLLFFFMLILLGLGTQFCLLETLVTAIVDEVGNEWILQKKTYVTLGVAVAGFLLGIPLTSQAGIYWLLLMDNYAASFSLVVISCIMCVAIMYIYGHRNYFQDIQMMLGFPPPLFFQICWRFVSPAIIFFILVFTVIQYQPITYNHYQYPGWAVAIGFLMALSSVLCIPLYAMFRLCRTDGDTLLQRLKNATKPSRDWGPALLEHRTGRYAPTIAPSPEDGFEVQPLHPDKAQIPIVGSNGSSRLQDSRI
As to the kind of experiment: [14C]-glycine uptake inhibition in JAR cells (human placental choriocarcinoma cells endogenously expressing GlyT1). The conditions noted are these: inhibition of specific [14C]-glycine uptake; values in nM; read-out: Potency. In kind it is cell-based. The procedure:
Human placental choriocarcinoma cells endogenously expressing GlyT1 can be cultured using standard conditions. Cells can then be grown at 37° C. in a humidified atmosphere 40-48 hours before the assay. Culture medium can be removed from the culture plate, and cells can be incubated with an amount of TB1A buffer with or without the compounds of the present invention for a sufficient period of time. Then an amount of [^14C]-glycine diluted with TB1A can be added to each well. After incubation the microplates can be sealed and counted. Non-specific uptake of [^14C]-glycine can be determined in the presence of unlabeled glycine. To determine potencies, a range of concentrations of the compounds of the present invention can be added to the cells, followed by the fixed concentration of [^14C]-glycine. The concentration of the present compound that inhibited half of the specific uptake of [^14C]glycine (IC50 value) can be determined from the assay data by non-linear curve fitting.

On to `Cn1cnc(S(=O)(=O)N2CCC(C(NC(=O)c3ccc(Cl)cc3Cl)c3cccs3)CC2)c1` (stereo not shown) [Compound 9c], for which the IC50 came to 374 nM.
